Experiments:
Type in all cases: cell-based
Details in all cases: filed as agonist
[1] = biological target: Transient receptor potential cation channel subfamily A member 1 (Mus musculus) (UniProt Q8BLA8); assay: Agonist activity at full length mouse TRPA1 transfected in HEK293F cells assessed as increase in Ca2+ influx by FLIPR calcium assay relative to control
[2] = biological target: Transient receptor potential cation channel subfamily A member 1 (Rattus norvegicus) (UniProt Q6RI86); assay: Agonist activity at full length rat TRPA1 transfected in HEK293F cells assessed as increase in Ca2+ influx by FLIPR calcium assay relative to MO
[3] = biological target: Transient receptor potential cation channel subfamily A member 1 (Homo sapiens, UniProt O75762); assay: Agonist activity at full length human TRPA1 transfected in HEK293F cells assessed as increase in Ca2+ influx by FLIPR calcium assay relative to MO

Sequences of proteins named here, by UniProt entry; tags and fusion partners are left off.
UniProt Q8BLA8, whole entry: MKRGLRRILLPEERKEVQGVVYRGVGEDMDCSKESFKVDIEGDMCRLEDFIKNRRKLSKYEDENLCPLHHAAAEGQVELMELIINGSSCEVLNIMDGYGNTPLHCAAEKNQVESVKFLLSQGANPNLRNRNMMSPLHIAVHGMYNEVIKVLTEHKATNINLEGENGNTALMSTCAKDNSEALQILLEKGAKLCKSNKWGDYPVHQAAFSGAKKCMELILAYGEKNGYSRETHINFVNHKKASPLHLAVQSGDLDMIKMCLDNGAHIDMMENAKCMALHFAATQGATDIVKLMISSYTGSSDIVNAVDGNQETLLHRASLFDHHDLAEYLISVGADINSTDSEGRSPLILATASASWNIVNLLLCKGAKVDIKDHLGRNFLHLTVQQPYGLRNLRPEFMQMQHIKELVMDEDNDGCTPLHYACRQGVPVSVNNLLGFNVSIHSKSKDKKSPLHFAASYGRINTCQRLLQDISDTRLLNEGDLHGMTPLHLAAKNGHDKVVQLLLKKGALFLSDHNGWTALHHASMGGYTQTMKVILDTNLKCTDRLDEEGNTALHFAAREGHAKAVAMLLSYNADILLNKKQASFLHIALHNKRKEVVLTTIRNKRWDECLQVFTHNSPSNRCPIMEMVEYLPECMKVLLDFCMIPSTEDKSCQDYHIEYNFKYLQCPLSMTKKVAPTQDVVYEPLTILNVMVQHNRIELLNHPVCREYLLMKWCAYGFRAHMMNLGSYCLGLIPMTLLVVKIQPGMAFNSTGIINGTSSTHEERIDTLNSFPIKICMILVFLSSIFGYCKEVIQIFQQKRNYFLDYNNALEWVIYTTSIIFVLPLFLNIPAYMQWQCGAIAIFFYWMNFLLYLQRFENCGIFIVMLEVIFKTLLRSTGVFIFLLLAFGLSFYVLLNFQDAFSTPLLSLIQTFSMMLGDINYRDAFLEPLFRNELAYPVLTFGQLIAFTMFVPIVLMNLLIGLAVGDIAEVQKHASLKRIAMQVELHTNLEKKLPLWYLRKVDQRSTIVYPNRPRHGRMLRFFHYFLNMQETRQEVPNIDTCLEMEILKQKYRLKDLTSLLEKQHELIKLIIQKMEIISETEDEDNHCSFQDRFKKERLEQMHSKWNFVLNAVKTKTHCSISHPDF
UniProt Q6RI86, whole entry: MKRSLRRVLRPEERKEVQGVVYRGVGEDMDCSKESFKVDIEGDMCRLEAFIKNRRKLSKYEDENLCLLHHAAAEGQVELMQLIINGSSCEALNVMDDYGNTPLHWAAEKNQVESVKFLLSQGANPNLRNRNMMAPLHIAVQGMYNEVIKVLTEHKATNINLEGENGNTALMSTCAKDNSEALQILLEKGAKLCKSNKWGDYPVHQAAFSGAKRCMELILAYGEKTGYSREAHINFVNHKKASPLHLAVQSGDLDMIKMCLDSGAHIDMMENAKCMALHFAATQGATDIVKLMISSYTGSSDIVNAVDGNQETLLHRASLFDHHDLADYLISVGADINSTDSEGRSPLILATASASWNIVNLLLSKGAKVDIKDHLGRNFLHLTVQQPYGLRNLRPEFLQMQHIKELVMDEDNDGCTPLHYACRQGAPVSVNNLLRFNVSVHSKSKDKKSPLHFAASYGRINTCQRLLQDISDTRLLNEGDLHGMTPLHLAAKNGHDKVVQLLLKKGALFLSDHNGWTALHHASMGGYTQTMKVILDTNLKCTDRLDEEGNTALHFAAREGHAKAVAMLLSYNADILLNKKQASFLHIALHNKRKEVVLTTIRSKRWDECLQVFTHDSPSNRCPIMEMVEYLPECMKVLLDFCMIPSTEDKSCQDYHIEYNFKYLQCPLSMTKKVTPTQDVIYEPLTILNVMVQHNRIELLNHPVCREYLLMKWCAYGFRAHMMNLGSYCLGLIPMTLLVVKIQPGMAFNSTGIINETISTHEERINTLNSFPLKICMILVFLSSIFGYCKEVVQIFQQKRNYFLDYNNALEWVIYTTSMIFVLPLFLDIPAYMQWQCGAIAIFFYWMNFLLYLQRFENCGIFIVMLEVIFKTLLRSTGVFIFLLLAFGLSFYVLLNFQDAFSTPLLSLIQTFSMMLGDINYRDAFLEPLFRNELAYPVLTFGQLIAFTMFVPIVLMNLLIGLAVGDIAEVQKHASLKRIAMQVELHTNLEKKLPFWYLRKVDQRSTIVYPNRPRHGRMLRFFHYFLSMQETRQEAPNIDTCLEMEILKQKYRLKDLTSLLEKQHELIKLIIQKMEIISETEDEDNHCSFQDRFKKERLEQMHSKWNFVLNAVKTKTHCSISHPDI
UniProt O75762, whole entry: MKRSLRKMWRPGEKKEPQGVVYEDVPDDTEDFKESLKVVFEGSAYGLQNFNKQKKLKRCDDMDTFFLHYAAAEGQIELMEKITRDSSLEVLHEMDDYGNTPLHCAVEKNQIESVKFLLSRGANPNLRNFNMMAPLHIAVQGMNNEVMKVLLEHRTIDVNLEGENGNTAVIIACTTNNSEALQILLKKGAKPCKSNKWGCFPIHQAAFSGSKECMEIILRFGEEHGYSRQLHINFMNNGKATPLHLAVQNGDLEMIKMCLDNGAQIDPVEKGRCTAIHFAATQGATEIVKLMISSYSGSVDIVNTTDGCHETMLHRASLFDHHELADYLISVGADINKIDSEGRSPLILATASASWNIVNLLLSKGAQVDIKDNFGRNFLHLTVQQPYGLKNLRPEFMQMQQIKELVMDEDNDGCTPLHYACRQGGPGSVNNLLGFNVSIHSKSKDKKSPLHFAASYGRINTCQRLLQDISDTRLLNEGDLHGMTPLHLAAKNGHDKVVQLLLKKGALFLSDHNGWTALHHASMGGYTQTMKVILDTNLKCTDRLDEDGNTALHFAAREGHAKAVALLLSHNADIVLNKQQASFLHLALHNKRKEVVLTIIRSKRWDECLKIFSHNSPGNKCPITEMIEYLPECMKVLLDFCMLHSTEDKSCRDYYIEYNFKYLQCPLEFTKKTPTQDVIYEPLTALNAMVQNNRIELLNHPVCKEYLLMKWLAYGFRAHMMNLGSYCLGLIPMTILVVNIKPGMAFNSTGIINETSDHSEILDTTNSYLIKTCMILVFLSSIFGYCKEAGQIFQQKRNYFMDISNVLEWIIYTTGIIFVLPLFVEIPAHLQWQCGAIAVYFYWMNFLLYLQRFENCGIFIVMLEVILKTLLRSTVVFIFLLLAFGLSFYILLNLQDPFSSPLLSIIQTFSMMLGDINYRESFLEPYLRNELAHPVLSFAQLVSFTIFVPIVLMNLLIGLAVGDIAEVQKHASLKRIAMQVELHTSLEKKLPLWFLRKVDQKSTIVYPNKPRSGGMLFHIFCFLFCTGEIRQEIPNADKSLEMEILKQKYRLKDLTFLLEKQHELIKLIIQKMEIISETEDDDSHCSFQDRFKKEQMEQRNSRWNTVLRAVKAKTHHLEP

Molecule O=[N+]([O-])c1cc([N+](=O)[O-])c(O)c([N+](=O)[O-])c1 has an Emax [1] of 59%, an Emax [2] of 60% and an Emax [3] of 61%.

Source: ChEMBL document CHEMBL5705895, “Species comparison and pharmacological characterization of human, monkey, rat, and mouse TRPA1 channels” (J Pharmacol Exp Ther, 2012)
